KDM4E inh = blocks human JMJD2E demethylase activity; B2RXH2; Potency, µM (series often up to 57.1 µM), without a hit: at the highest dose activity change, negative = inhibition, hits mostly inhibitors; JMJD2E catalytic domain, FDH-coupled NADH fluorescence (FDH is formaldehyde dehydrogenase); 1.6% of 230,000 active; active means well fitted inhibition curve with a large enough effect, not every such curve was filed as active; inconclusive means small, poorly fitted or top-dose-only effect, or another doubt; inactive means no such curve, though single readings can be large or run the other way;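 further: potency means the concentration at half of the fitted maximal effect; 0% = wells with enzyme and -100% = buffer wells without enzyme; nearly all actives have a fitted effect of over 50% in size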
ALDH1A1 block = inhibitors of human aldehyde dehydrogenase 1A1. P00352. Purified ALDH1A1, NADH fluorescence, propionaldehyde substrate. Potency, µM (highest dose often 75.3 µM), for the others: at the highest dose activity, negative = inhibition, most hits filed as inhibitors. 7.3% of 220,000 active. AID 1030; active means well fitted inhibition curve with a large enough effect, not every such curve was filed as active; inconclusive means small, poorly fitted or top-dose-only effect, or another doubt; inactive means no such curve, though single readings can be large or run the other way;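 further: potency means the concentration at half of the fitted maximal effect; plate controls were no enzyme wells and a reference inhibitor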
LMNA splice mod = LMNA splicing modulation. HeLa LMNA splicing GFP/RFP minigene ratio, 48 h. Potency, µM (highest dose often 46.1 µM), for inactives: at the highest dose ratio change, negative = inhibition, usual class: inhibitors. 0.01% of 200,000 active. AID 1487; active means well fitted inhibition curve with a large enough effect in the signal ratio, with a control signal flat, not every such curve was filed as active; inconclusive means small, poorly fitted or top-dose-only effect, or effect the other way, or a change in a side signal; the % refers to the signal ratio; further: potency means the concentration at half of the fitted maximal effect; on the % scale 0 is the no-effect control and ±100 the full control effect
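S3 HeLa cells stably expressing lamin A-EGFP splicing minigene plus DsRed2, 600 cells/well, 48 h compound exposure at 37C. Laser-scanning cytometry; analysed as GFP (500-530 nm)/RFP (575-640 nm) total intensity ratio; 0.5% DMSO vehicle.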
Sfp PPTase inh = qHTS Assay for Inhibitors of Bacillus subtilis Sfp phosphopantetheinyl transferase (PPTase). Biochemical Sfp PPTase activity, qHTS. Potency, µM, for inactives: max response, negative = inhibition, most hits filed as inhibitors. 310,000 compounds, 3.5% hits. 4'-phosphopantetheinyl transferase ffp (Bacillus subtilis), Q9F4F7; active = well fitted inhibition curve with a large enough effect; inconclusive = small, poorly fitted or top-dose-only effect, or another doubt; inactive = no such curve, though single readings can be large or run the other way;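 note: the enzyme is Sfp with the accession as filed and its product quenches rhodamine fluorescence; potency is the fitted concentration of half-maximal effect; 0% = enzyme reaction without inhibitor and -100% = no enzyme wells; top concentration of the series not given in the record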
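With Hepes-Na pH 7.6 buffer containing 10 mM MgCl2, Sfp (15 nM) modified BHQ-2-YbbR (12.5 uM) using rhodamine-CoA (5 uM). Two reads 30 minutes apart at 525/598 nm yielded each well's rate.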
G9a inh = G9a (human) methyltransferase inhibition. Q96KQ7. G9a H3K9 monomethylation, AlphaScreen, 2 h. Potency, µM (top dose mostly 102 µM), without a hit: at the top dose activity, negative = inhibition, usual class: inhibitors. 8.8% of 350,000 active; further: potency means the concentration at half of the fitted maximal effect; on the % scale 0 is the no-effect control and ±100 the full control effect; nearly all actives have a fitted effect of over 75% in size
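Chemiluminescent proximity detection of H3K9 monomethylation, read after 10 min bead incubation in the dark. Reaction: 20 nM G9a, 500 nM biotin-H3K9 peptide, 20 uM SAM cofactor, 2 h, room temperature, following 15 min enzyme-compound preincubation.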
miR-21 reporter = raises the signal of a miR-21 reporter; 340,000 tested, under 10 active; HeLa miR-21 FLuc reporter, luciferase, 48 h; Potency, µM (series often up to 38.3 µM), for inactives: at the highest dose reporter change, positive = more light; active = well fitted rising curve with a large enough effect; inconclusive = small, poorly fitted or top-dose-only effect; inactive = no such curve, though single readings can be large or run the other way;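 further: % of control where 0% means no effect; miR-21 action dims this reporter so a rising signal means less miR-21 action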
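HeLa cells endogenously expressing miR-21, stably carrying CMV-driven firefly luciferase with a downstream miR-21 binding site, 2000 cells/well. Titrations up to approximately 40 uM, 48 hours; luciferase luminescence read.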
* marks the source's active call; other numbers are inactive results; ? = inconclusive; nt = not tested or not shown; ! = a repeat was not active; [ ] = another dose, or the depositor's remark. In the library only some 13% were active in any assay of this set; here they are far more common. Unless noted, the call rests on the fitted dose curve; in most records, active means well fitted curve in the direction sought with a large enough effect; inconclusive means small, poorly fitted or top-dose-only effect, or another doubt; inactive means no such curve, though single readings can be large; an effect the other way counts as inactive or inconclusive.

SMILES	KDM4E inh	ALDH1A1 block	LMNA splice mod	Sfp PPTase inh	G9a inh	miR-21 reporter
COc1ccc2c(c1OC)CN(C)CCc1cc3c(cc1C(O)C2)OCO3 (stereo not drawn)	-7%	?	10%	7%	20%[59 µM]	-1%
CN(C)C(CNC(=O)c1ccc(S(=O)(=O)Nc2ccccc2F)cc1)c1ccco1 (stereo not drawn)	nt	nt	nt	nt	14%[12.7 µM]	nt
CCCc1cc(=O)oc2cc(OCC(=O)NCCCN3CCOCC3)ccc12	nt	nt	nt	0%	nt	2%
CCn1nc([N+](=O)[O-])c(C(C#N)c2nc3ccccc3n2C)c(Cl)c1=O (stereo not drawn)	-5%	11%	?	-1%	?	1%
CCCn1nc([N+](=O)[O-])c(C(C#N)c2nc3ccccc3s2)c(Cl)c1=O (stereo not drawn)	-8%	?	?	17%	7.1µM*	?
CCCCCCCCCCCCCC(=O)OCC(COP(=O)([O-])OCC[N+](C)(C)C)OC(=O)CCCCCCCCCCCCC (stereo not drawn)	nt	nt	nt	10%	-11%[12.7 µM]	nt
CCCCCCCCCCCCCCCCCCNC(=O)OCC(COP(=O)([O-])OCC[n+]1ccsc1)OC (stereo not drawn)	0%	5%	?	nt	21µM*	nt
O=C(Cc1cccs1)N1CCN(c2ccc([N+](=O)[O-])cc2)CC1	-1%	25µM*	nt	17%	?	7%
O=C(CCc1ccccc1)N1CCN(c2ccc([N+](=O)[O-])cc2)CC1	-28%	2.2µM*	-17%[46 µM]	-11%	-34%	9%
O=C(CCc1ccc(Oc2cc([N+](=O)[O-])cc([N+](=O)[O-])c2)cc1)N1CCCCCC1	1%	13µM*	?	18µM*	?	3%
Cc1nc2ncnn2c(N2CCN(C(=O)Cc3cccs3)CC2)c1C	-6%	7.9µM*	?	2%	-25%[59 µM]	-2%
COC(=O)c1sc2cccc(F)c2c1S(=O)(=O)N1CCN(c2ccc(C)cc2C)CC1	nt	nt	?	nt	9%[59 µM]	-1%
COc1ccc(C2=NOC(C(=O)NCc3ccco3)C2)cc1 (stereo not drawn)	-3%	22µM*	?	8%	-42%[59 µM]	-4%
O=C(NCc1ccco1)C1CC(c2ccc(Cl)c(Cl)c2)=NO1 (stereo not drawn)	-9%	0%	0%[46 µM]	15%	2%	0%
O=C(NCc1ccco1)C1CC(c2c(Cl)cccc2Cl)=NO1 (stereo not drawn)	7%	-16%	10%	79µM*	?	17%

Continued, overlapping the part above by five compounds.
SMILES	KDM4E inh	ALDH1A1 block	LMNA splice mod	Sfp PPTase inh	G9a inh	miR-21 reporter
Cc1nc2ncnn2c(N2CCN(C(=O)Cc3cccs3)CC2)c1C	-6%	7.9µM*	?	2%	-25%[59 µM]	-2%
COC(=O)c1sc2cccc(F)c2c1S(=O)(=O)N1CCN(c2ccc(C)cc2C)CC1	nt	nt	?	nt	9%[59 µM]	-1%
COc1ccc(C2=NOC(C(=O)NCc3ccco3)C2)cc1 (stereo not drawn)	-3%	22µM*	?	8%	-42%[59 µM]	-4%
O=C(NCc1ccco1)C1CC(c2ccc(Cl)c(Cl)c2)=NO1 (stereo not drawn)	-9%	0%	0%[46 µM]	15%	2%	0%
O=C(NCc1ccco1)C1CC(c2c(Cl)cccc2Cl)=NO1 (stereo not drawn)	7%	-16%	10%	79µM*	?	17%
CCn1c(=O)c2c(nc3n2CCN3c2ccc(OC)cc2)n(C)c1=O	nt	nt	-14%[46 µM]	nt	3%[59 µM]	-11%
COc1cc(C(=O)N/N=C/c2ccc3c(c2)c2ccccc2n3C)ccc1O	nt	nt	nt	12%	22%	15%
Cn1c2ccccc2c2cc(/C=N/NC(=O)c3cc(O)ccc3O)ccc21	nt	nt	nt	-22%	40µM*	0%
COc1cc(/C=N/NC(=O)CCn2c3ccccc3c3ccccc32)ccc1O	-10%	-1%	?	6%	?	12%
Cn1c2ccccc2c2cc(/C=N/NC(=O)c3cc(O)cc(O)c3)ccc21	nt	nt	nt	-5%	50µM*	-15%
NNC(=O)c1cc2ccccc2cc1O	-23%	10%	-3%	17%	18%[59 µM]	-5%
O=c1c(O)cccc2cc(O)c(O)c(O)c12	4µM*	8.9µM*	-17%[46 µM]	6.3µM*!	0.56µM*	6%
Cc1ccc(NC(=O)Cn2c(=O)n(CC3CCCO3)c(=O)c3ccccc32)cc1 (stereo not drawn)	nt	nt	nt	nt	-35%[59 µM]	-4%
COc1ccc(C2N3CC4(C)CN2CC(c2ccccc2)(C3)C4=O)cc1 (stereo not drawn)	nt	nt	nt	nt	2%[59 µM]	-1%
c1ccc(OCc2ccc(CCCN3CCOCC3)cc2)cc1	nt	nt	nt	0%	12%[12.7 µM]	-12%
O=C1C(Cl)=C(NCCCN2CCOCC2)C(=O)N1CCc1ccccc1	-1%	7.9µM*	-6%	4%	-20%[59 µM]	-17%
c1ccc(CCCN2CCOCC2)cc1	nt	nt	nt	-24%	50µM*	2%
O=C1C(Cl)=C(NCCc2ccccc2)C(=O)N1CCc1ccccc1	?	-2%	12%	-5%	4%[12.7 µM]	2%
Nc1nc(CN2CCN(c3ccccc3)CC2)nc(N2CCCc3ccccc32)n1	-12%	?	?	1%	50µM*	-7%
Nc1nc(CN2CCN(c3ccccc3F)CC2)nc(N2CCCc3ccccc32)n1	-4%	?	nt	14%	?	-7%
COc1ccc(N2CCN(Cc3nc(N)nc(N4CCCc5ccccc54)n3)CC2)cc1	1%	2%	0%	-3%	45µM*	-1%
Nc1nc(CSc2nnnn2-c2ccccc2)nc(N2CCCc3ccccc32)n1	-9%	2.8µM*	?	-16%	-6%[59 µM]	-11%
Nc1nc(CN2CCN(c3cccc(Cl)c3)CC2)nc(N2CCCc3ccccc32)n1	?	?	-14%	5%	-12%[12.7 µM]	-3%
CN(C(=O)CCCOc1ccc2[nH]c(=O)ccc2c1)C1CCCCC1	?	?	-8%	32%	0%[12.7 µM]	nt
CC(C)c1ccc(NC(=O)c2cccn2-c2nnc(N3CCCCC3)s2)cc1	nt	nt	nt	nt	-41%[59 µM]	-4%
CC(Oc1cccc(Cl)c1)C(=O)N(C)CC(=O)Nc1ccc(N2CCOCC2)cc1 (stereo not drawn)	nt	nt	nt	nt	40µM*	nt
COc1ccc(NC(=O)CN(C)CC(=O)Nc2ccc(N3CCOCC3)cc2)c([N+](=O)[O-])c1	-9%	-3%	nt	-4%	4%[59 µM]	-8%
O=C(COc1cccc(Cl)c1)Nc1ccc(N2CCOCC2)cc1	1%	0%	-1%	-10%	79µM*	-8%
CN(CC(=O)Nc1ccc(N2CCOCC2)cc1)CC(=O)Nc1ccc(Cl)cc1[N+](=O)[O-]	-3%	?	-15%	-13%	56µM*	-24%
Cc1ccc(SCC(c2ccccc2)N2CCN(C)CCC2=O)cc1 (stereo not drawn)	nt	nt	nt	4%	nt	nt
O=C(c1ccc(COc2ccccc2Cl)o1)N1CCN(Cc2ccc3c(c2)OCO3)CC1	-2%	-12%	3%[0.0737 µM]	?	50µM*!	-4%
O=C(c1ccc(COc2ccc(Cl)cc2)o1)N1CCN(Cc2ccc3c(c2)OCO3)CC1	1%	-9%	?	-18%	-39%[12.7 µM]	0%
CC1CCN(c2nc3ccc(C(=O)N4CCN(Cc5ccc6c(c5)OCO6)CC4)cc3s2)CC1	-10%	?	0%	3%	28µM*	-22%
COc1ccccc1OCc1ccc(C(=O)N2CCCCC2)o1	nt	nt	nt	7%	21%	-14%
O=C(c1ccc(Cl)c([N+](=O)[O-])c1)N1CCN(Cc2ccc3c(c2)OCO3)CC1	-3%	19µM*	12%[46 µM]	18%	-40%	15%
COc1ccccc1OCc1ccc(C(=O)N2CCOCC2)o1	-7%	25µM*	0%	0%	?	-13%

Screening results deposited in PubChem BioAssay by National Center for Advancing Translational Sciences (NCATS).
